Drawing on EP4834908A1, “FUSED RING COMPOUND, PHARMACEUTICAL COMPOSITION CONTAINING SAME AND USE THEREOF” (dated 2026), this text covers IC50 for 13 compounds.

By UniProt entry, the sequences of proteins in these tests, tags left out.
UniProt Q14191, whole entry: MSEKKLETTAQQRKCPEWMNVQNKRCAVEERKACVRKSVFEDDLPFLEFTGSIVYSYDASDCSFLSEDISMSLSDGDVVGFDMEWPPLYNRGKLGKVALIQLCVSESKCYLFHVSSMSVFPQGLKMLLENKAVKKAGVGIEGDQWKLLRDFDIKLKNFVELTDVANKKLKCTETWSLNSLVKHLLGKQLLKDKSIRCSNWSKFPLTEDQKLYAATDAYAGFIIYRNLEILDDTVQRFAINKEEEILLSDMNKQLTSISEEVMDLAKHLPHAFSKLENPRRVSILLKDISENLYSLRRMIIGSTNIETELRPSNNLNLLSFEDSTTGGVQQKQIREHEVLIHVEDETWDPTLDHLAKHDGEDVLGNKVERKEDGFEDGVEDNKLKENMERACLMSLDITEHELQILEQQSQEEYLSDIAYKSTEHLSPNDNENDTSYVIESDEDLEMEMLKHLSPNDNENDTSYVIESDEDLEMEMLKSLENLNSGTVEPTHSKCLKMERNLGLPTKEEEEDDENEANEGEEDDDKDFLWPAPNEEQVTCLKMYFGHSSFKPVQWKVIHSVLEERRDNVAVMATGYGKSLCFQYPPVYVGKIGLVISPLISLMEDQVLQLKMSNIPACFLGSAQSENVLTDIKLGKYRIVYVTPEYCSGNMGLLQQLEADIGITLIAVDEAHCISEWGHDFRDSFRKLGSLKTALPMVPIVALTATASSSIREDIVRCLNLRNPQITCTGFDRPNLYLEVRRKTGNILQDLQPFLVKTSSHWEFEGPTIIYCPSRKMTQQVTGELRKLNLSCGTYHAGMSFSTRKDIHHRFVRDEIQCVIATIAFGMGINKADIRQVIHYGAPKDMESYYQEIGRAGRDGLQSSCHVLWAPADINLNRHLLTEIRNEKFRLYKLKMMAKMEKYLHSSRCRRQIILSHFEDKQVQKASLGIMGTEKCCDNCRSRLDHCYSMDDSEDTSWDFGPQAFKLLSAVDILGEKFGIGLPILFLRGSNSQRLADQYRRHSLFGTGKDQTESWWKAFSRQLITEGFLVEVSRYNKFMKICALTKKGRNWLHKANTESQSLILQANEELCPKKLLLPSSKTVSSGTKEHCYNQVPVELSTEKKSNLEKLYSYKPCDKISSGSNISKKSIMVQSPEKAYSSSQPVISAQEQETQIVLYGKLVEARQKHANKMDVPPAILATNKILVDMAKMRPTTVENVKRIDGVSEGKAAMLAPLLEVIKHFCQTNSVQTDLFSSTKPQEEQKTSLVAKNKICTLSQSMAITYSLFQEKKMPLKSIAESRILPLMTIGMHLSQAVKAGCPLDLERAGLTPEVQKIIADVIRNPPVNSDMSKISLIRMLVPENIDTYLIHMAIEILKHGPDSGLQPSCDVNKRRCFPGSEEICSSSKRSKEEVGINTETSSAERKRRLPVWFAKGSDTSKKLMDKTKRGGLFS

Some results are limits rather than exact numbers.

In one test the test system is DLD1-WRN-KO cell line. Description: Inhibitory activity assay for cell proliferation (CellCounting-Lite), DLD1-WRN-KO off-target control. The settings on record: read-out: DLD1-WRN-KO Proliferation inhibition IC50; DLD1-WRN-KO cells, 4 days treatment. The procedure: A DLD1-WRN-KO cell line was constructed by stably knocking out the WRN gene in DLD1 cells using CRISPR/Cas9 technology, and the constructed cell line was used to evaluate potential off-target effects of the compounds.
(§1) Human colonic adenocarcinoma SW48 cells were cultured in monolayer in vitro under the following conditions: DMEM medium containing 10% fetal bovine serum and 1% penicillin and streptomycin, at 37 °C with 5% CO2. Human colonic adenocarcinoma HCT116 cells were cultured in monolayer in vitro under the following conditions: McCOY's5A medium containing 10% fetal bovine serum and 1% penicillin and streptomycin, at 37 °C with 5% CO2. DLD1-WRN-KO cells were cultured in monolayer in vitro under the following conditions: 1640 medium containing 10% fetal bovine serum and 1% penicillin and streptomycin, at 37 °C with 5% CO2. The cells were digested with trypsin twice a week for passaging.
(§2) After treatment of SW48 cell lines and HCT116 cell lines with microsatellite instability and the control DLD1-WRN-KO cell line using the test compounds for 4 days, ATP levels were measured using a CellCounting-Lite kit from Vazyme to evaluate inhibitory effects of the test compounds on the growth of tumor cell lines.
(§3) In the present application, the SW48 cell line, the HCT116 cell line, and the DLD1-WRN-KO cell line were seeded into a 96-well cell culture plate at an appropriate cell density. After 24 h, the cells were treated with the test compounds at the highest concentration of 10 µM, followed by 1:3 serial dilution to obtain 9 concentration gradients, and a DMSO treatment group was set up separately. The cells were cultured in an incubator at 37 °C with 5% CO2 for 4 days. To evaluate inhibitory effects of the test compounds on tumor cell proliferation, the cells were equilibrated at room temperature for 30 min, and then 100 µL of a cell proliferation detection reagent, CellCounting-Lite (CCL), was added to each well. The plate was shaken for 5 min and then incubated in the dark for 10 min. Chemiluminescence values were read using a Thermo Varioskan LUX-3020 multifunctional microplate reader for conversion to proliferation indices to calculate the inhibition rate of the compound on tumor cell proliferation, and the inhibition rate value and the logarithm value of the compound concentration were fitted using non-linear regression (dose response-variable slope) to obtain the IC50 value of the compound. Table 2. Inhibitory activity data of compounds in the examples of the present application against tumor cell proliferation

The target of the next test is WRN helicase (Homo sapiens, UniProt Q14191). Description: ATPase activity assay of WRN helicase (ADP-Glo). The settings on record: read-out: WRN ATPase activity inhibition IC50; 10 nM WRN, 300 µM ATP, 0.4 nM FLAP26; 3 h pre-incubation at 37 °C. The procedure:
The ADP content generated by ATP hydrolysis catalyzed by WRN helicase was measured using a commercial ADP-Glo assay kit (Promega, #V9102), and the measured ADP level could reflect the ATPase activity of WRN helicase.
The 45 nt oligonucleotide single-stranded DNA FLAP26 ([…]) was synthesized by Azenta. Reference was made, for example, to Brosh RM Jr et al., J Biol Chem, 2002 Jun;277(26):23236-45. A reaction buffer (30 mM Tris pH 7.5, 2 mM MgCl2, 0.02% BSA, 50 mM NaCl, 0.1% pluronic F127) was prepared. To a 384-well clear plate were sequentially added 5 µL of 3× test compound (which was diluted in the reaction buffer to contain 0.5% DMSO, with a final initial concentration of 10 µM and subjected to 1:3 serial dilution to obtain a total of 9 concentration gradients), 5 µL of 3× WRN recombinant protein, and 3× ATP substrate solution (diluted in the reaction buffer, with final concentrations of WRN and ATP being 10 nM and 300 µM, respectively). The resulting mixture was mixed well by shaking and incubated at 37 °C for 3 h. Subsequently, a 3× FLAP26 solution was prepared using the reaction buffer, and 5 µL of the solution (with a final FLAP26 concentration of 0.4 nM) was added to the 384-well clear plate. The mixture was mixed well by shaking to initiate the enzymatic reaction, and then incubated at room temperature for 30 min.
5 µL of the above mixture was transferred to a 3 84-well white plate, and 5 µL of ADP-Glo reagent was added. The mixture was mixed well by shaking, and incubated at room temperature in the dark for 40 min. 10 µL of kinase detection reagent was added to the above solution. The mixture was mixed well by shaking and incubated at room temperature in the dark for 30 min, and then chemiluminescence readings were recorded. The inhibition rate of the compound on the enzyme activity was calculated, and the inhibition rate value and the logarithm value of the compound concentration were fitted using non-linear regression (dose response-variable slope) to obtain the IC50 value of the test compound. Table 1. WRN ATPase activity data of compounds in the examples of the present application

The next test concerns SW48 cells. Description: Inhibitory activity assay for tumor cell proliferation (CellCounting-Lite), SW48. The note with it: read-out: SW48 Proliferation inhibition IC50, 4 days treatment. The procedure: as §1, §2, §3
The next test deals with HCT116 cells. As to the kind of experiment: Inhibitory activity assay for tumor cell proliferation (CellCounting-Lite), HCT116. The note with it: read-out: HCT116 Proliferation inhibition IC50, 4 days treatment. The method, then:
as §1, §2, §3

For the compound `Cc1ncnc(C(=O)N2CCN(c3c4n(c5nc(-c6ccccc6)nn5c3=O)C(C(=O)Nc3ccc(C(F)(F)F)cc3Cl)CC4C)[C@H]3CC[C@@H]32)c1O` (stereo partly shown), the IC50 with DLD1-WRN-KO cell line was over 10000 nM; on WRN helicase it was 11 nM; with SW48 cells, 2 nM.

Consider `Cc1ncnc(C(=O)N2CCN(c3c4n(c5nc(-c6ccccc6)nn5c3=O)C(C(=O)Nc3ccc5c(c3)OC(F)(F)O5)CC4C)[C@H]3CC[C@@H]32)c1O` (single isomer, unassigned) [C43-P3], for which the IC50 in the test with HCT116 cells is 4 nM; in the test on DLD1-WRN-KO cell line it was over 10000 nM; on WRN helicase, 4 nM; in the test on SW48 cells it was 11 nM.

As for `Cc1ncnc(C(=O)N2CCN(c3c4n(c5nc(-c6ccccn6)nn5c3=O)C(C(=O)Nc3ccc5c(c3Cl)OC(F)(F)O5)CC4C)[C@H]3CC[C@@H]32)c1O` (single isomer, unassigned) [C93-P1], the IC50 in the test on HCT116 cells is 19 nM; in the test with DLD1-WRN-KO cell line, over 10000 nM; at WRN helicase it was 9 nM; with SW48 cells it was 10 nM.

`Cc1ncnc(C(=O)N2CCN(c3c4n(c5nc(-c6ccccc6)nn5c3=O)C(C(=O)Nc3ccc5c(c3C)OC(F)(F)O5)CC4C)[C@H]3CC[C@@H]32)c1O` (single isomer, unassigned): the IC50 with HCT116 cells was 2.5 nM; in the test on DLD1-WRN-KO cell line, over 10000 nM; at WRN helicase, 1 nM; in the test with SW48 cells, 1 nM.

As for `Cc1ncnc(C(=O)N2CCN(c3c4n(c5nc(-c6ccccc6)nn5c3=O)C(C(=O)Nc3ccc5c(c3)OC(F)(F)O5)CC4C)[C@H]3CC[C@@H]32)c1O` (single isomer, unassigned) [C43-P1], the IC50 was 9 nM in the test with HCT116 cells, over 10000 nM in the test with DLD1-WRN-KO cell line, 4 nM at WRN helicase and 10 nM in the test on SW48 cells.

On to `Cc1ncnc(C(=O)N2CCN(c3c4n(c5nc(-c6ccccn6)nn5c3=O)C(C(=O)Nc3ccc5c(c3C)OC(F)(F)O5)CC4C)C3CCC32)c1O` (single isomer, unassigned) [C143-P3], for which the IC50 is 7.2 nM in the test with HCT116 cells, over 10000 nM with DLD1-WRN-KO cell line, 17 nM on WRN helicase and 2.7 nM with SW48 cells.

`Cc1ncnc(C(=O)N2CCN(c3c4n(c5nc(-c6ccccc6)nn5c3=O)C(C(=O)Nc3ccc5c(c3Cl)OC(F)(F)O5)CC4C)[C@H]3CC[C@@H]32)c1O` (single isomer, unassigned) [C89-P2]: the results for the IC50 with DLD1-WRN-KO cell line, on WRN helicase and in the test on SW48 cells were over 10000 nM, 273 nM and 240 nM, respectively.

For the compound `Cc1ncnc(C(=O)N2CCN(c3c4n(c5nc(-c6ccccc6)nn5c3=O)C(C(=O)Nc3ccc5c(c3Cl)OC(F)(F)O5)CC4C)CC2)c1O` (single isomer, unassigned) [C90-P3], the results for the IC50 with DLD1-WRN-KO cell line, on WRN helicase and in the test with SW48 cells were over 10000 nM, 13 nM and 29 nM, respectively.

In the case of `Cc1ncnc(C(=O)N2CCN(c3c4n(c5nc(-c6ccccc6)nn5c3=O)C(C(=O)Nc3ccc5c(c3Cl)OC(F)(F)O5)CC4C)[C@H]3CC[C@@H]32)c1O` (single isomer, unassigned) [C89-P3], the IC50 was over 10000 nM in the test on DLD1-WRN-KO cell line, 3 nM at WRN helicase and 0.2 nM in the test on SW48 cells.

On to `Cc1ncnc(C(=O)N2CCN(c3c4n(c5nc(-c6ccccc6)nn5c3=O)C(C(=O)Nc3ccc5c(c3Cl)OC(F)(F)O5)CC4C)CC2)c1O` (single isomer, unassigned) [C90-P2], for which the IC50 with DLD1-WRN-KO cell line was over 10000 nM; on WRN helicase, 10 nM; in the test on SW48 cells it was 148 nM.

As for `Cc1ncnc(C(=O)N2CCN(c3c4n(c5nc(-c6ccccn6)nn5c3=O)C(C(=O)Nc3ccc5c(c3C)OC(F)(F)O5)CC4C)C3CCC32)c1O` (single isomer, unassigned) [C143-P1], the IC50 is 9.7 nM with HCT116 cells, over 10000 nM in the test with DLD1-WRN-KO cell line, 14 nM on WRN helicase and 12 nM in the test on SW48 cells.

As for `Cc1ncnc(C(=O)N2CCN(c3c4n(c5nc(-c6ccccc6)nn5c3=O)[C@@H](C(=O)Nc3ccc5c(c3Cl)OC(F)(F)O5)C[C@@H]4C)[C@H]3CC[C@@H]32)c1O`, the IC50 in the test with DLD1-WRN-KO cell line was over 10000 nM; on WRN helicase, 1 nM; with SW48 cells it was 0.2 nM.

For `Cc1ncnc(C(=O)N2CCN(c3c4n(c5nc(-c6ccccn6)nn5c3=O)C(C(=O)Nc3ccc5c(c3Cl)OC(F)(F)O5)CC4C)[C@H]3CC[C@@H]32)c1O` (single isomer, unassigned) [C93-P3], the IC50 is 5.4 nM with HCT116 cells, over 10000 nM with DLD1-WRN-KO cell line, 9 nM at WRN helicase and 4.2 nM in the test with SW48 cells.
